Screening results as filed in PubChem BioAssay.
Shown are actives, neighbours in structure and some others; about 2.1% of the full set was active somewhere.
PGC1a acetyl inh – inhibitors of PGC1a acetylation signal, primary screen, cell-based, U2OS, AlphaScreen, inhibitor mode. AlphaScreen anti-acetyl-lysine; with virally co-expressed GCN5 acetyltransferase. inhibition, % at 15.6 µM. 350,000 tested, 0.17% active. AID 651687, 2012;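 active means every replicate shows inhibition of at least 40%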
miR122 inh – miR-122 Renilla sensor signal increase in Huh7, primary screen, miR-122 inhibitor project, cell-based, single point, plate reader | Huh7 miR-122 Renilla luciferase sensor, 48 h; neutral wells = 0, positive control = 100 | activation (reporter increase), % at 12.5 µM | 340,000 tested, 0.3% active | AID 602342, 2012;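 active means mean replicate activation score at least 90 and every replicate individually at or above 90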;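 further: higher luciferase means less miR-122 activity so hits act as miR-122 inhibitors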
Yeast UUG start – yeast start codon fidelity modulation | S. cerevisiae UUG-firefly luciferase reporter, luminescence/redox ratio | activity score, % at 18.7 µM | hit rate 0.13% among 350,000 | AID 602363;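 active means replicate mean at a twofold rise or more, about +100% in these data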;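 further: firefly luciferase made from a UUG start codon reports start codon fidelity; reporter light over untreated wells divided by growth signal over untreated wells; some hits fall short of that in this replicate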
TRPM1 prom inh – inhibitors of MITF-dependent TRPM1 promoter reporter, primary screen, cell-based, SK-MEL-5, single point, luciferase; SK-MEL-5 TRPM1 promoter luciferase, 24 h; AID 488899, 2010; inhibition, % at 12.5 µM; 330,000 tested, 0.83% active;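 active means mean inhibition across replicates of 60% or more, whatever share of single replicates reaches that level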
Wnt act – Wnt/beta-catenin pathway activators, primary screen, cell-based, plate reader, single point. Wnt/beta-catenin reporter cell assay, activator. activation, % at 9.35 µM. 300,000 tested, 1.2% active. AID 743398, 2014; in the data active means activation above about 30%, passing the limit was not always enough
MITF act – activators of MITF-driven TRPM1 promoter reporter, primary screen, cell-based, SK-MEL-5, luciferase, single point | SK-MEL-5 TRPM1-promoter luciferase, 24 h; % of positive control, neutral wells = 0 | activation, % at 12.5 µM | 300,000 tested, 0.75% active;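 active means mean activation of at least 80% with every replicate also reaching 80%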
Each line names hits and unclear results; the compound was inactive in the other large screens.

O=C(NC(=S)Nc1ccccn1)c1ccc([N+](=O)[O-])cc1	none (no result: Wnt act)
O=C(NC(=S)Nc1cccnc1Cl)c1ccc(Cl)cc1	Wnt act 36 (no result: PGC1a acetyl inh)
O=C(Nc1ccccn1)c1ccccc1	MITF act 82 (no result: miR122 inh)
O=C(NC(=S)Nc1ccc2nc[nH]c2c1)c1ccccc1	MITF act 102
CCC(=O)N[C@@H]1C=C[C@H](CC(=O)NCc2ccccc2F)O[C@H]1CO	none (no result: TRPM1 prom inh, Wnt act, MITF act)
O=C(C1CCOCC1)N1CC2(C1)[C@@H](c1ccccc1)[C@@H](CO)N2CCC(F)(F)F	none (no result: miR122 inh, Yeast UUG start, TRPM1 prom inh, Wnt act, MITF act)
Cc1ccccc1-c1ccc(C2[C@@H]3CN(S(=O)(=O)c4cn(C)cn4)C[C@H]2N3)cc1 (stereo not given in full)	none (no result: miR122 inh, Yeast UUG start, TRPM1 prom inh, Wnt act, MITF act)
O=C(Nc1cc(-c2ccccc2)[nH]n1)c1ccccc1	Wnt act 43 (no result: MITF act)
O=C(O)c1ccccc1C(=O)Nc1cc(-c2ccccc2)[nH]n1	none
O=C(NC(=S)Nc1ccccn1)c1ccc(-c2ccccc2)cc1	MITF act 117
CCOC(=O)c1ccc(N/C=C\C(=O)c2cccc(OC)c2)cc1	MITF act 96 (no result: Wnt act)
O=C(/C=C\Nc1ccc2c(c1)OCO2)c1ccc2c(c1)OCO2	Wnt act 34 (no result: PGC1a acetyl inh, miR122 inh, Yeast UUG start)
CCOC(=O)c1cccc(N/C=C/C(=O)c2ccc(OC)c(OC)c2)c1	none (no result: PGC1a acetyl inh, Wnt act)
COc1ccc(N/C=C\C(=O)c2ccc3c(c2)OCO3)cc1	Wnt act 75
CCOC(=O)c1cc(S(=O)(=O)Nc2cccc(OC)c2)cn1C	miR122 inh 132
C[C@H](CO)N1C[C@H](C)[C@H](CN(C)C(=O)Nc2ccc(F)cc2)Oc2ncc(C3=CCCC3)cc2C1=O	none (no result: TRPM1 prom inh, Wnt act, MITF act)
CCCNC(=O)NC[C@H]1[C@@H](c2ccc(C3=CCCC3)cc2)[C@H](CO)N1C(C)=O	none (no result: TRPM1 prom inh, Wnt act, MITF act)
COc1ccc(OC)c(N(CC(=O)N2CCC(C)CC2)S(=O)(=O)c2ccc(OC)c(OC)c2)c1	none (no result: Wnt act, MITF act)
COc1ccc(OC)c(N(CC(=O)N2CCC(C)CC2)S(=O)(=O)c2ccccc2)c1	miR122 inh 232
CCOC(=O)C1CCN(C(=O)CN(c2ccc3c(c2)OCCO3)S(=O)(=O)c2ccccc2)CC1	none (no result: PGC1a acetyl inh, miR122 inh, Yeast UUG start)
CC1CCN(C(=O)CN(c2ccc3c(c2)OCCO3)S(=O)(=O)c2ccccc2)CC1	miR122 inh 104 (no result: PGC1a acetyl inh, MITF act)
Cc1ccc(S(=O)(=O)N(CC(=O)N2CCC(C)CC2)c2cccc(C)c2)cc1	miR122 inh 144
CCOC(=O)N1CCN(C(=O)CN(c2cccc(C)c2)S(=O)(=O)c2ccc(C)cc2)CC1	none (no result: Wnt act)
C[C@H]1CN([C@@H](C)CO)C(=O)c2cc(-c3cccc(F)c3)cnc2O[C@@H]1CN(C)C(=O)Nc1cc(F)ccc1F	none (no result: TRPM1 prom inh, Wnt act, MITF act)
C[C@@H]1CN([C@@H](C)CO)C(=O)c2cc(NS(=O)(=O)c3ccc(F)cc3)ccc2O[C@@H](C)CCCCO[C@@H]1CN(C)C(=O)Nc1ccc(F)cc1	none (no result: TRPM1 prom inh, Wnt act, MITF act)
COc1ccc(N(C(=O)CNC(=O)c2ccco2)C(C(=O)NC2CCCCC2)c2ccncc2)cc1 (stereo not given)	none
COc1ccc(N(C(=O)Cn2cnc3ccccc32)C(C(=O)NC2CCCCC2)c2ccccc2)cc1 (stereo not given)	Wnt act 56
C[C@H](CO)N1C[C@H](C)[C@@H](CN(C)S(=O)(=O)c2cn(C)cn2)OCCCC[C@H](C)Oc2ccc(NC(=O)Nc3ccc4c(c3)OCO4)cc2C1=O	none (no result: TRPM1 prom inh, Wnt act, MITF act)
COc1cc(/C=N/O)ccc1OCc1ccccc1Cl	MITF act 96
C[C@@H]1CCCCO[C@H](CN(C)S(=O)(=O)c2cn(C)cn2)[C@@H](C)CN([C@H](C)CO)C(=O)c2cc(NC(=O)Nc3ccc(C(F)(F)F)cc3)ccc2O1	none (no result: TRPM1 prom inh, Wnt act, MITF act)
COc1ccccc1S(=O)(=O)N[C@@H]1C=C[C@H](CC(=O)NCc2cccc(F)c2)O[C@@H]1CO	none (no result: miR122 inh, TRPM1 prom inh, Wnt act, MITF act)
CC(C)c1ccc(N=C2N=C(N)c3ccccc32)cc1	Wnt act 49 (no result: miR122 inh, Yeast UUG start)
CCOC(=O)/C=C1/N(C)c2ccccc2C1(C)C	Wnt act 41
CN1/C(=C\C(=O)COC(=O)c2ccc(O)cc2)C(C)(C)c2ccccc21	none
